Reference: US10766902B2
pEC50: −log10 of the molar value. Read-outs that look alike come from different tables or passages of the source.

Sequences of proteins named here, by UniProt entry; tags and fusion partners are left off.
UniProt P30291, whole entry: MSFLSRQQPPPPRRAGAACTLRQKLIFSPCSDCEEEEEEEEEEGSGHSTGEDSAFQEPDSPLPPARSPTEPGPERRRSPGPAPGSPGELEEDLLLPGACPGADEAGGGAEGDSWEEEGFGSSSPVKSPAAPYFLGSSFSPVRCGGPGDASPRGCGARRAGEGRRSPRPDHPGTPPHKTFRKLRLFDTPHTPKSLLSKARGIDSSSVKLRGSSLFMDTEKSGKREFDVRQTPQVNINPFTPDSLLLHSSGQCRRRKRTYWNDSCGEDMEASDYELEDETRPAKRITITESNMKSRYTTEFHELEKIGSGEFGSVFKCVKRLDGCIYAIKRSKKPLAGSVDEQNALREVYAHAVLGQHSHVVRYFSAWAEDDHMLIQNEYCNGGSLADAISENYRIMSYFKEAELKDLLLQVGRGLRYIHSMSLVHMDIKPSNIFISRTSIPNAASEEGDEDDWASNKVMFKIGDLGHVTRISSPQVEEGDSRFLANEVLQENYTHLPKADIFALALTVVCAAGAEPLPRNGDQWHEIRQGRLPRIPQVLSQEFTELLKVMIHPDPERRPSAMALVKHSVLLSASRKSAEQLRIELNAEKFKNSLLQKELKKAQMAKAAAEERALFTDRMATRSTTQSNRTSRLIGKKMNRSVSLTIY

Tests used:
Wee-1 = Wee-1 (Homo sapiens (Human), UniProt P30291); conditions: read-out: Wee-1/nM; Table 7; reference ACS Chem Biol 2016, 11, 921; cited from earlier work
[1] = tested on: phosphorylation of Cdc2 at Tyr15; experiment: ELISA for phosphorylation of Cdc2 at Tyr15 in HT-29 / HCT-116 cells; assay type: cell-based, human
A498 cells = experiment: Cell viability (CellTiter-Glo), A498; assay type: cell-based; conditions: read-out: A498 EC50; cell viability after 6 days
SK-LU-1 cells = experiment: Cell viability (CellTiter-Glo), SK-LU-1; assay type: cell-based; conditions: read-out: SK-LU-1 EC50; cell viability after 6 days
phosphorylation of CDC2 = conditions: read-out: ELISA/nM; Table 5; reference US 2007/0254892; cited from earlier work

Compound | IC50 (Wee-1) [nM] | pEC50 ([1]; read-out: ELISA p-CDC2 EC50, Table 3) | EC50 ([1]; read-out: ELISA/nM, Table 5, data obtained as described in the experimental section of the current invention) [nM] | pEC50 (A498 cells) | pEC50 (SK-LU-1 cells) | EC50 (phosphorylation of CDC2) [nM]
C=CCn1c(=O)c2cnc(Nc3ccc(N4CCOCC4)cc3)nc2n1-c1cccc(C(C)(C)O)n1 | 37.8 | – | – | – | – | –
C=CCn1c(=O)c2cnc(Nc3ccc(N4CCN(C)CC4)cc3)nc2n1-c1cccc(C(C)(C)O)n1 | – | 7.18 | 67 | 6.99 | 7.40 | 68
C=CCn1c(=O)c2cnc(Nc3ccc(N(C)C)cc3)nc2n1-c1cccc(C(C)(C)O)n1 | 42.8 | – | – | – | – | –
